Assay results as given in PubChem BioAssay AID709 (SRMLSC, 2007).
Only a part is listed here, and it is no random draw. Some tests of the compounds listed are not included; inactive here does not mean inactive elsewhere. The source made the active and inactive calls.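 How the source made its calls: active means at 10 µM, mean starting fluorescence two-fold or more over control wells; inactive means the rest.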

test: intrinsic fluorescence of library compounds, ex339/em460 – biochemical, MLSMR library, data from DPM-DC assay, artefact control, profiling panel (AID 709); settings: compound autofluorescence, ex339/em460 nm, NADH buffer; at 10 µM; active compounds read high; 1 = no-compound wells, NADH background;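 further: signal is the first read of a kinetic run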

Structure (SMILES) | fluorescence fold increase
O=C(OC1CN2CCC1CC2)C(CO)(c1ccccc1)c1ccccc1 (configuration not stated) | inactive: 1.01
CN(C)c1cccc(C(=O)NCC2(N(C)C)CCCCC2)c1 | inactive: 1.88
